For this assay, the system named is Gli reporter activity in Sufu−/− MEFs. Briefly: 8×GliLuc luciferase reporter assay in Sufu−/− MEFs. Format: cell-based, mouse. The note with it: 10 μM cyclopamine or 100 nM SAG for two days. The protocol: For the luciferase reporter assays, 20,000 MEF cells were seeded into each well of a 24-well plate in MEF medium. The following day, cells were transfected using FuGENE 6 (Roche) with 300 ng of the luciferase reporter plasmids 8×GliLuc and 8×Gli^mutLuc (58) with or without 300 ng of the pMYC-SUFU expression plasmid (9), 300 ng of a constitutively active PKA catalytic subunit expression plasmid (59) or with 300 ng of the TOPflash and FOPflash reporter plasmids (Upstate Biotechnology), together with 50 ng the Renilla luciferase phRL-TK reporter (Promega) to monitor the transfection efficiency. […] The assays were conducted in triplicate and repeated at least three times. The values were normalized to the Renilla reporter before calculating relative levels.
(In general: A reporter such as luciferase makes a cellular process visible.)

“Also recorded” adds a separate entry of the source.

For `CC1=C2C[C@H]3[C@@H](CC=C4C[C@@H](O)CC[C@@]43C)[C@@H]2CC[C@]12O[C@@H]1C[C@H](C)CN[C@H]1[C@H]2C` [Cyclopamine], the “Effect on Gli reporter activity (8×GliLuc)” value was “does not inhibit the pathway; also recorded: inactive”. The “Effect on Gli reporter activity (8×GliLuc)” value (listed as cyclopamine) is on record as “no effect was observed”.

The values are drawn from patent US20120185955A1, “HEDGEHOG INHIBITOR ASSAY” (priority 2005, published 2012).
